{"source": "patent US7235142B2", "about": "“Non-toxic corrosion-protection rinses and seals based on cobalt” (University of Dayton, priority 2002, dated 2007)", "origin": "cited, not measured here", "settings": "at or near 25° C. and at or near pH 7", "note": "Like-named read-outs stand apart in the source and are kept apart here.", "data": [{"substance": "Cobalt (II) chlorate", "values": [{"measurement": "Solubility in Water", "setting": "cobalt sources", "result": 16.7, "unit": "mol/L"}]}, {"substance": "Me4N^+ nitrate", "values": [{"measurement": "Solubility in Water", "setting": "oxidizer sources", "result": "~1 × 10^1^ mole/L"}]}]}
